Source: PMC2605271 (Journal of clinical neuroscience : official journal of the …, 2008)

Test system: SERT protein expression
Experiment: Immunoblotting of SERT protein expression in HEK-hSERT cells
Type: cell-based, human
Details: 10^−6 M, 24 hours

CNCCC(Oc1ccc(C(F)(F)F)cc1)c1ccccc1 (stereo not shown) [fluoxetine]
Change in SERT protein expression in response to chronic fluoxetine treatment: no changes
